In PubChem BioAssay AID2549 (National Center for Advancing Translational Sciences (NCATS), 2010):
This is a selection; strong and weak results do not stand in their true shares. Calls of active or inactive are those of the source. Calls come from the whole dose curve; as a rule, active = well fitted inhibition curve with a large enough effect; inconclusive = small, poorly fitted or top-dose-only effect; inactive = flat fitted curve, though single readings scatter.

The chains behind the UniProt entries cited, without tags or fusion partners.
UniProt P46063, whole entry: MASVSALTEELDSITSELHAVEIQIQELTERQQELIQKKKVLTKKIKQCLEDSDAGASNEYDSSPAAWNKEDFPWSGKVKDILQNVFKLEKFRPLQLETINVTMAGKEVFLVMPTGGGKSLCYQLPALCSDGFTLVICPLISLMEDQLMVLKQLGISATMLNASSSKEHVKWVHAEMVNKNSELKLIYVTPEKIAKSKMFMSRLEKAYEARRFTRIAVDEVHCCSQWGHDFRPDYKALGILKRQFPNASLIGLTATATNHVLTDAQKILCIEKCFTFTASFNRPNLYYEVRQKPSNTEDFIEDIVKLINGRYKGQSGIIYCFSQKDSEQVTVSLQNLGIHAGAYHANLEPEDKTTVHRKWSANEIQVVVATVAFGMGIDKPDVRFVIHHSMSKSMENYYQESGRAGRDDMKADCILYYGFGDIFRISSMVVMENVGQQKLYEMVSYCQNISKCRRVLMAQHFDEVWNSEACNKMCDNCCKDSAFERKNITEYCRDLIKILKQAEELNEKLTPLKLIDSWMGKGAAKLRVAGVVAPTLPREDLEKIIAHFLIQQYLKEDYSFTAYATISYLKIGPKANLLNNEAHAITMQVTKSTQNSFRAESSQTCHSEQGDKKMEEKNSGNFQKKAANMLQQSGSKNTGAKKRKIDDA

molecular target: ATP-dependent DNA helicase Q1 (Homo sapiens) (UniProt P46063); test: qHTS Assay for Inhibitors of RecQ-Like Dna Helicase 1 (RECQ1); details: RECQ1 DNA unwinding, red fluorescence kinetic read; activity, negative = inhibition: at 57.3 µM (top of the series) unless noted; note: nearly all actives have a fitted effect of over 30% in size;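 for activity, negative = inhibition: plate controls were vehicle for no effect and no enzyme for full effect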
From the text: Survival of cells and the faithful propagation of the genome depend on elaborate mechanisms of detecting and repairing DNA damage. Treatment of advanced cancer relies on radiation therapy or chemotherapy, which kill cancer cells by causing extensive DNA damage. It is often found, that cancer cells develop resistance to therapy through enhanced activity of DNA repair functions; this has led to an increased interest in developing drugs that interfere with DNA repair, which could sensitize cancer cells to conventional therapy.
This validation qHTS assay pertains to human RECQ1, which is important in resolving abnormal DNA structures formed during replication or homologous recombination. Shutting down the expression of RECQ1 leads to chromosomal instability and higher radiation sensitivity in cultured cells.
The validation assay was a fluorescence quenching based kinetic qHTS for RECQ1 Helicase DNA unwinding. The activity was measured as ATP-dependent separation of a 20-bp DNA duplex extended by 30-nt single-stranded tails (forked duplex). The forked DNA substrate was tagged with rhodamine fluorophore (carboxytetramethyl rhodamine, TAMRA) and BHQ-2 (Black Hole Quencher 2) dark quencher. Strand separation results in an increase in the fluorescence of TAMRA (excitation 525 nm, emission 598 nm). This substrate construct operates in a red-shifted region where very few compound library members have been noted to fluoresce (PubChem AIDs 593 and 594). An additional feature of the assay is the inclusion of 2.5 ug/ml poly (dIdC), to reduce interference by compounds such as DNA intercalators, a major source of false inhibitors.
Opher Gileadi, Structural Genomics Consortium, University of Oxford
Screening Center PI: Austin, C.P.
Screening Center: NIH Chemical Genomics Center [NCGC]
Three uL of reaction buffer (25 mM Tris-HCl (pH 8.0), 5 mM NaCl, 2 mM MgCl2, 1mM DTT, 0.01% Tween- 20, and 2.5 ug/ml poly(dI-dC), including enzyme (50 nM RECQ1T1), were dispensed into a 1536-well Greiner black assay plate via solenoid-valve based nanoliter dispensers. Compounds (23 nl each in columns 5-48) and control (23 nl each in column 2 as dose-response) were transferred via a Kalypsys pintool equipped with a 1536-pin array. The plates were incubated for 15 min at room temperature, and then 1 ul of substrates (200 nM DNA and 2 mM ATP, final concentrations) was added to start the reaction. The plate was transferred into a ViewLux high-throughput CCD imager where the reaction progress was measured in a discontinuous kinetic mode (two reads spaced 2 hours apart, with intermediate room temperature incubation of the covered assay plate) by using standard red-fluorescence optics (excitation filter 525 nm, emission filter 598 nm). Enzyme-free and vehicle (DMSO) controls were included for signal normalization.

| SMILES | activity, negative = inhibition |
| --- | --- |
| COc1ccc(OP(C)(=O)Nc2ccc(SC(F)(F)F)cc2)cc1 (stereo not drawn) | inactive: -13.7% |
| CCC(C)(OO)OOC(C)(CC)OO (stereo not drawn) | inactive: -1.91% |
| Cc1cccc([N+](=O)[O-])c1[N+](=O)[O-] | inactive: 4.69% |
| O=C(OCCN1CCN(CCOCc2ccccc2)CC1)C(O)(c1ccccc1)c1ccccc1 | inactive: -3.99% |
| CP(=O)(Nc1ccccc1F)Oc1ccccc1 (stereo not drawn) | inactive |
| CC(C)c1ccc(OP(C)(=O)Nc2ccc(SC(F)(F)F)cc2)cc1 (stereo not drawn) | inactive: -12.8% |
| Cc1ccccc1NP(C)(=O)Nc1ccccc1C | inactive: -2.73% |
| CCN(CCCl)Cc1ccccc1C | inactive: -4.08% |
| [NH4+].[O-][Cl+3]([O-])([O-])[O-] | inactive: -18.7% |
| CP(=O)(Nc1ccc2c(c1)OCCO2)Oc1ccccc1 (stereo not drawn) | inactive: -1.71% |
| CCOP(C)(=S)SCC(=O)NC(C)(CC)C(=O)O (stereo not drawn) | inactive: -10.1% |
| CCOP(=O)(CC)OCC | inactive: -0.502% |
| CP(=O)(Nc1ccc(SC(F)(F)F)cc1)Oc1ccc(F)cc1 (stereo not drawn) | inactive: -5.74% |
| O=[N+]([O-])c1ccc(OP2(=O)COCCO2)cc1 (stereo not drawn) | inactive: -11.5% |
| Cc1ccc([N+](=O)[O-])c([N+](=O)[O-])c1 | inactive: 11.1% |
| Cc1c([N+](=O)[O-])cccc1[N+](=O)[O-] | inactive: -6.44% |
| Cc1cc(-c2cccc3ccccc23)c(C)cn1.O=[N+]([O-])c1cc([N+](=O)[O-])c(O)c([N+](=O)[O-])c1 | inactive |
| CN(C)CCOC(=O)C(O)(c1ccccc1)C1CCCCC1 (stereo not drawn) | inactive: 2.81% |
| COc1ccc(NP(C)(=O)Oc2ccccc2OC)cc1 (stereo not drawn) | inactive |
| COc1ccc(OP(C)(=O)Nc2cccc(Br)c2)cc1 (stereo not drawn) | inactive |
| C/C1=C2N=C(/C=C3N=C(/C(C)=C4\[N-][C@@](C)([C@H]5N=C1[C@@](C)(CCC(=O)NC[C@H](C)OP(=O)([O-])O[C@@H]1[C@H](O)[C@H](n6cnc7cc(C)c(C)cc76)O[C@@H]1CO)[C@@H]5CC(N)=O)[C@](C)(CC(N)=O)[C@H]4CCC(N)=O)[C@@](C)(CC(N)=O)[C@@H]\3CCC(N)=O)C(C)(C)[C@@H]/2CCC(N)=O.[C-]#N.[Co+3] | inactive: -7.42% [at 25.9 µM] |
| CCOC(=O)c1ccc(NP(C)(=O)Oc2ccc(Cl)cc2)cc1 (stereo not drawn) | inactive: 0.0943% |
| CP(=O)(OC12CC3CC(CC(C3)C1)C2)OC12CC3CC(CC(C3)C1)C2 | inactive |
| CN(C)C(=O)c1c([N+](=O)[O-])cc([N+](=O)[O-])cc1[N+](=O)[O-] | inactive: -10.2% |

| SMILES | activity, negative = inhibition |
| --- | --- |
| COc1ccccc1OP(C)(=O)Nc1ccccc1Br (stereo not drawn) | inactive |
| CC(C)(C)c1ccc(OP(C)(=O)O)cc1 | inactive: -3.03% |
| CP(=O)(Nc1ccc(Cl)cc1)Oc1ccc(F)cc1 (stereo not drawn) | inactive |
| COc1ccccc1OP(C)(=O)Nc1c(C)n(C)n(-c2ccccc2)c1=O (stereo not drawn) | inactive |
| OCCSCCO | inactive: 16.9% |
| O=C(OCCCN1CCCC1)C(O)(c1ccccc1)C1CCCCC1 (stereo not drawn) | inactive: -7.28% |
| CP(=O)(Oc1ccccc1)N1CCOC1=O (stereo not drawn) | inactive: -3.49% |
| CCc1ccc(OP(C)(=O)Nc2cccnc2)cc1 (stereo not drawn) | inactive |
| CCN(CC)CC(O)COC(=O)C(O)(c1ccccc1)C1CCCCC1 (stereo not drawn) | inactive: 5.26% |
| COc1ccc(OP(C)(=O)Nc2ccc(Br)cc2)cc1 (stereo not drawn) | inactive: -6.55% |
| CP(=O)(Nc1ccccn1)Oc1ccccc1 (stereo not drawn) | inactive: -4.26% |
| COc1ccccc1OP(C)(=O)Nc1ccc(C)cc1C (stereo not drawn) | inactive |
| CCc1ccc(OP(C)(=O)O)cc1 | inactive: 4.78% |
| Cc1c(NP(C)(=O)Oc2ccc(C(C)C)cc2)c(=O)n(-c2ccccc2)n1C (stereo not drawn) | inactive |
| O=[N+]([O-])c1cc([N+](=O)[O-])c(Nc2ccccn2)c([N+](=O)[O-])c1 | inactive: -8.44% |
| COc1ccc(OP(C)(=O)Nc2ccccn2)cc1 (stereo not drawn) | inactive |
| CN(C)CCOC(=O)C(O)(c1ccccc1)C1CCCC1 (stereo not drawn) | inactive: -7.47% |
| COc1ccccc1OP(C)(=O)Nc1ccc(Br)cc1 (stereo not drawn) | inactive: -7.75% |
| CP(=O)(Nc1ccc(Cl)cc1Cl)Oc1ccccc1 (stereo not drawn) | inactive: -5.25% |
| CP(=O)(OCCOc1ccccc1)OCCOc1ccccc1 | inactive: -11.6% |
| Cc1nc2ccc3ccccc3c2o1.O=[N+]([O-])c1cc([N+](=O)[O-])c(O)c([N+](=O)[O-])c1 | inactive |
| COc1ccccc1OP(C)(=O)Nc1ccc(C)c(C)c1 (stereo not drawn) | inactive: -0.154% |
| COc1ccc(OP(C)(=O)Nc2ccccc2Br)cc1 (stereo not drawn) | inactive: -12.9% |
| Cc1cc(C)cc(OP(C)(=O)Nc2cccc(C(F)(F)F)c2)c1 (stereo not drawn) | inactive: -9.44% |
